This note sets out measurements from doi:10.1101/2023.04.09.536153v2.

Amino acid sequences for entries named in this document (tags omitted). Residues count along the entry.
UniProt Q9Y4B6, 1073-1399 E1398S limits assumed: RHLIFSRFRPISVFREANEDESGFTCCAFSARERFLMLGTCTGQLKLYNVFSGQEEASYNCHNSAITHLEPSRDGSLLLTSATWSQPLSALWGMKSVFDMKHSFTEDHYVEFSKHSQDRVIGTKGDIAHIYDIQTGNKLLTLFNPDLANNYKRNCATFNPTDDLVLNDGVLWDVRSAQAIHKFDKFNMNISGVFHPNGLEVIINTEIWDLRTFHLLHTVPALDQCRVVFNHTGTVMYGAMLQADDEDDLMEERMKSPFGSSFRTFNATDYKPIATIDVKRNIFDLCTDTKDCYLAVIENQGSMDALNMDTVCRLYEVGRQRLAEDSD

The target in this assay is DCAF1(1073-1399)_E1398S (WDR domain, Avi/His-tagged) (Homo sapiens, UniProt Q9Y4B6, E1398S). The assay can be described thus: TR-FRET competition with bodipy ligand. The format is binding. The note with it: 30 mM phosphate pH 7.4, 140 mM NaCl, 22 °C; no BTK added. A general note: In TR-FRET formats the signal depends on donor and acceptor labels being close together.

In general, IC50 refers to the point on the concentration scale where inhibition reaches its midpoint. A higher IC50 goes with a need for much substance.

For the compound `CC(=O)NCCOCCOCCOCCOCCOCCOCCC(=O)N1CCN(c2ccc3c(NCCN)nc(C4(c5ccc(Cl)cc5)CCCC4)nc3c2)CC1`, the IC50 came out at 20 nM.
